# Assay results: patent US20080241177A1 (priority 2003, published 2008)
# Test system: serum antibodies
# Experiment: Immunization of rabbits with peptides 3 and 7, anti-peptide ELISA
# Type: in vivo, rabbit
# Conditions: two rabbits, mixture of peptides 3 and 7 (375 μg each), QuilA/DEAE Dextran/Montanide ISA 50V
row,Substance,Polyclonal sera against peptide from immunised rabbits
1,"H-KLLIHWASTRESGVPDR-OH [Peptide 3, Light CDR2 of human anti-p53 antibody with N-terminus specificity]",successfully isolated
2,"H-LLIYLGSTRASGVPDR-OH [Peptide 7, Light CDR2 of human anti-p53 antibody with central domain specificity]",successfully isolated
